Assays:
[1] = target: mu binding sites (Oprm1 variants) in spinal cord (Mus musculus, UniProt P42866); experiment: Radioligand saturation binding in spinal cord membranes
[2] = target: mu binding sites (Oprm1 variants) in brain membranes (Mus musculus, UniProt P42866); experiment: Radioligand saturation binding in brain membranes

Sequences of proteins named here, by UniProt entry; tags and fusion partners are left off. A change or cut given only in a name is not applied to a line headed by its entry. Residues count along the entry.
UniProt P42866, 1-386 limits assumed: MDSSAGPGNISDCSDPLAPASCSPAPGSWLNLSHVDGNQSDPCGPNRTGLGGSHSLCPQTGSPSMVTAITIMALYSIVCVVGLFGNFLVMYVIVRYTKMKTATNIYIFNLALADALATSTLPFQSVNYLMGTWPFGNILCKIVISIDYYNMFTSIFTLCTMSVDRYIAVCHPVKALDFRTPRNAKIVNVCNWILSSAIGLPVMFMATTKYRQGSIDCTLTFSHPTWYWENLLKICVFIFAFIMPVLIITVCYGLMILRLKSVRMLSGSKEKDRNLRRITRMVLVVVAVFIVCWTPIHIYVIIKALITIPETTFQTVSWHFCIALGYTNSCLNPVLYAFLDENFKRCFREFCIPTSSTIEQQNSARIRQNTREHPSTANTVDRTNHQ

Work on “^3H-D-Ala2,N-MePhe4,Gly(ol)5]Enkephalin [^3H-DAMGO]” yielded a BMAX ([1]; 129, spinal cord, E11 KO) of 78 ± 1 fmol/mg, a BMAX ([1]; 129, spinal cord, WT) of 76 ± 1 fmol/mg and a BMAX ([1]; C57, spinal cord, E11 KO) of 71 ± 2 fmol/mg. The BMAX ([1]; C57, spinal cord, WT) was 73 ± 5 fmol/mg, the BMAX ([2]; 129, brain, E11 KO) was 33 ± 5 fmol/mg and the BMAX ([2]; 129, brain, WT) was 31 ± 0.1 fmol/mg. It also gave a BMAX ([2]; C57, brain, E11 KO) of 103 ± 13 fmol/mg and a BMAX ([2]; C57, brain, WT) of 130 ± 7 fmol/mg.
